Test results as given in PubChem BioAssay (NCATS).
The entries are a selection whose mix differs from that of the whole data set. Inconclusive results are not listed. Activity calls are given as the source filed them. The call rests on the fitted dose curve; in most records, active means well fitted curve in the direction sought with a large enough effect; inconclusive means small, poorly fitted or top-dose-only effect, or another doubt; inactive means no such curve, though single readings can be large; an effect the other way counts as inactive or inconclusive.

Columns and labels:
[1] = qHTS of pediatric cancer cell lines to identify multiple opportunities for drug repurposing: Primary screen for SK-N-SH cells (AID 1347098); settings: SK-N-SH viability, CellTiter-Glo luminescence, 48 h; further: nearly all actives have a fitted effect of over 65% in size; further: potency means the concentration at half of the fitted maximal effect; on activity change, negative = cytotoxic: on the % scale 0 is the no-effect control and ±100 the full control effect
Outline: (§1)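 Cells (500-1,000/well) rested 5 h, then received compounds for 48 h; metabolically active cells were measured by CellTiter-Glo luminescence. Final concentrations spanned up to 46 µM (MIPE, 11-point) or 0.59 nM-46 µM (NPC, 8-point) in primary screens, 11-point in follow-ups.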

[2] = qHTS of pediatric cancer cell lines to identify multiple opportunities for drug repurposing: Primary screen for NB1643 cells (AID 1347099); settings: NB1643 neuroblastoma viability, CellTiter-Glo luminescence, 48 h; at 46 µM (top of the series) unless noted;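 further: plate controls were DMSO neutral control for no effect and bortezomib positive control for full effect; nearly all actives have a fitted effect of over 50% in size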
[3] = qHTS of pediatric cancer cell lines to identify multiple opportunities for drug repurposing: Primary screen for LAN-5 cells (AID 1347100); settings: LAN-5 neuroblastoma viability, CellTiter-Glo luminescence, 48 h; at 46 µM (top of the series) unless noted;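 further: plate controls were DMSO neutral control for no effect and bortezomib positive control for full effect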
Outline: as §1

[4] = qHTS of pediatric cancer cell lines to identify multiple opportunities for drug repurposing: Primary screen for Rh18 cells (AID 1347102); settings: Rh18 rhabdomyosarcoma viability, CellTiter-Glo luminescence, 48 h; at 46 µM (top of the series) unless noted; further: on the % scale 0 is the no-effect control and ±100 the full control effect; nearly all actives have a fitted effect of over 65% in size
Outline: as §1

[5] = qHTS of pediatric cancer cell lines to identify multiple opportunities for drug repurposing: Primary screen for OHS-50 cells (AID 1347103); settings: OHS-50 osteosarcoma viability, CellTiter-Glo luminescence, 48 h; at 57.3 µM (top of the series) unless noted;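 further: plate controls were DMSO neutral control for no effect and bortezomib positive control for full effect; nearly all actives have a fitted effect of over 40% in size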
Source text: (§2) Drug repurposing or repositioning has been offered as a strategy for drug development in oncology programs. This approach has special potential for childhood cancers and other rare or orphan diseases, where the expected return on new drug development has been a disincentive to pharmaceuticals.
(§3) In this project we exploit the poly-pharmacology of drugs to discover new indications via phenotypic screening of a panel of 19 well-characterized cell lines derived from solid tumors seen in children and adolescents. The goal is to identify approved drugs with previously unrecognized anticancer properties that has the potential to reveal new mechanisms and biological processes involved in carcinogenesis or drug resistance. We employed a titration-based paradigm (quantitative high-throughput screening or qHTS), where all compounds were tested at multiple concentrations for their effect on cell viability. Concentration-response curves (CRCs) were derived directly from the primary screen, and both potency and efficacy values were used to identify compounds with robust bioactivity profiles. We screened the NIH Chemical Genomics Center (NCGC) Pharmaceutical Collection (NPC) and Mechanism Interrogation Plate (MIPE) small molecule collections of approved and investigational compounds against these cell lines; and measured metabolically active cells after 48 hours of compound treatment as a proxy for cell viability.
(§4) Assay Submitter: Nathalia J. Martinez, National Center for Advancing Translational Sciences, National Institutes of Health, Rockville, MD, USA; email: natalia.martinez@nih.gov
(§5) [1] Shen, M et al. Quantitative high-throughput phenotypic screening of pediatric cancer cell lines identifies multiple opportunities for drug repurposing. Oncotarget 2017 Dec 19;9(4):4758-4772. PMID 29435139.
(§6) The cells were obtained from University of North Carolina (UNC), Pediatric Preclinical Testing Program (PPT), and Coriell Institute (CI).
(§7) qHTS cell viability assay:
Cells were assayed in growth media at a density of 500-1,000 cells/well. Five microliters of cells were dispensed into 1,536-well, white, solid-bottom, TC-treated plates (Greiner Bio One) using a multidrop dispenser and incubated at 37 degrees C, 5% CO2, under a humidified atmosphere for 5 hours. Twenty-three nanoliters of compounds and controls (neutral control DMSO or positive control bortezomib at final concentration of 2.3 µM) were subsequently transferred by Kalypsys pintool. […] After a 15 min incubation at room temperature, samples were analyzed for luminescence intensity using a ViewLux High-throughput CCD imager equipped with clear filters.

[6] = qHTS of pediatric cancer cell lines to identify multiple opportunities for drug repurposing: Primary screen for RD cells (AID 1347104); settings: RD rhabdomyosarcoma viability, CellTiter-Glo luminescence, 48 h; at 92.7 µM (top of the series) unless noted;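 further: plate controls were DMSO for no effect and bortezomib for full effect; nearly all actives have a fitted effect of over 55% in size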
Outline: (§8)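 Plated cells (500-1,000 per well, growth media) were allowed to settle for 5 hours, treated with compound dilutions for 48 hours, then lysed with CellTiter-Glo for 15 min at room temperature before luminescence reading.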

[7] = qHTS of pediatric cancer cell lines to identify multiple opportunities for drug repurposing: Primary screen for MG 63 (6-TG R) cells (AID 1347105); settings: MG 63 (6-TG R) viability, CellTiter-Glo, 48 h; at 92.7 µM (top of the series) unless noted; further: on the % scale 0 is the no-effect control and ±100 the full control effect; nearly all actives have a fitted effect of over 50% in size
Outline: as §8

[8] = qHTS of pediatric cancer cell lines to identify multiple opportunities for drug repurposing: Primary screen for control Hh wild type fibroblast cells (AID 1347106); settings: Hh wild-type fibroblast viability, CellTiter-Glo luminescence, 48 h; at 46 µM (top of the series) unless noted;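 further: on the % scale 0 is the no-effect control and ±100 the full control effect; a drop in luminescence marks cytotoxicity and a rise apparent proliferation; nearly all actives have a fitted effect of over 55% in size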
Source text: as §2, §3, §4, §5, §6, §7
Cells were assayed in growth media at a density of 500-1,000 cells/well. Five microliters of cells were dispensed into 1,536-well, white, solid-bottom, TC-treated plates (Greiner Bio One) using a multidrop dispenser and incubated at 37 degrees C, 5% CO2, under a humidified atmosphere for 5 hours. Twenty-three nanoliters of compounds and controls (neutral control DMSO or positive control bortezomib at final concentration of 2.3 µM) were subsequently transferred by Kalypsys pintool. For primary screens, the MIPE collection was tested at 11-point dilutions (final concentrations range from 0.78 nM to 46 µM) and the NPC collection at 8-point dilutions (final concentrations range from 0.59 nM to 46 µM). Compounds tested in follow-up screens were assayed at 11-point dilutions. Cells were incubated for 48 hours, followed by addition of 3 µL of CellTiter-Glo (Promega). After a 15 min incubation at room temperature, samples were analyzed for luminescence intensity using a ViewLux High-throughput CCD imager equipped with clear filters.

[9] = qHTS of pediatric cancer cell lines to identify multiple opportunities for drug repurposing: Primary screen for Saos-2 cells (AID 1347097); settings: Saos-2 viability, CellTiter-Glo ATP luminescence, 48 h; at 46 µM (top of the series) unless noted; further: on the % scale 0 is the no-effect control and ±100 the full control effect; nearly all actives have a fitted effect of over 40% in size
Outline: as §8

[10] = qHTS of pediatric cancer cell lines to identify multiple opportunities for drug repurposing: Primary screen for BT-12 cells (AID 1347101); settings: BT-12 viability, CellTiter-Glo luminescence, 48 h; at 57.3 µM (top of the series) unless noted;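 further: plate controls were DMSO for no effect and bortezomib positive control for full effect; nearly all actives have a fitted effect of over 25% in size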
Outline: as §1

| Structure (SMILES) | Potency [1] | activity change, negative = cytotoxic [2] | activity change, negative = cytotoxic [3] | activity change, negative = cytotoxic [4] | activity change, negative = cytotoxic [5] | activity change, negative = cytotoxic [6] | activity change, negative = cytotoxic [7] | activity change, negative = cytotoxic [8] | activity change, negative = cytotoxic [9] | activity change, negative = cytotoxic [10] |
| --- | --- | --- | --- | --- | --- | --- | --- | --- | --- | --- |
| O=[N+]([O-])c1cccc([N+](=O)[O-])c1 | inactive | inactive: 7.7% [at 92.7 µM] | inactive: -18.1% [at 92.7 µM] | inactive: 20% [at 92.7 µM] | inactive: 6.72% [at 116 µM] | inactive: 15.4% | inactive: 5.83% | inactive: -12.8% [at 92.7 µM] | – | – |
| Cc1cccc([N+](=O)[O-])c1[N+](=O)[O-] | inactive | inactive: 15.1% [at 92.7 µM] | inactive: 6.83% [at 92.7 µM] | inactive: 14.9% [at 92.7 µM] | inactive: 18.7% [at 116 µM] | inactive: 9.74% | inactive: -13.8% | inactive: 13.8% [at 92.7 µM] | inactive: 27% [at 92.7 µM] | inactive: 3.98% [at 116 µM] |
| CCOP(=O)(CC)Oc1ccc([N+](=O)[O-])cc1 (stereo not drawn) | inactive | inactive: -9.54% | inactive: -8.59% | inactive: -7.97% | inactive: 23.3% | inactive: -3.38% [at 46 µM] | – | inactive: -8.71% | inactive: -3.9% | inactive: -4.79% |
| OCCSCCO | inactive | inactive: 9.95% | inactive: 12.1% | inactive: 4.16% | inactive: 15.4% | inactive: 9.68% [at 46 µM] | inactive: 1.54% [at 46 µM] | inactive: 10.4% | inactive: 41.8% | inactive: 13.9% |
| CC1=C2[N-][C@@](C)([C@@H]3N=C(C(C)=C4N=C(C=C5N=C1[C@@](C)(CC(N)=O)[C@H]5CCC(N)=O)C(C)(C)[C@H]4CCC(N)=O)[C@](C)(CCC(=O)NC[C@@H](C)OP(=O)([O-])O[C@H]1[C@@H](O)[C@@H](n4cnc5cc(C)c(C)cc54)O[C@H]1CO)[C@H]3CC(N)=O)[C@@](C)(CC(N)=O)[C@@H]2CCC(N)=O.[C-]#N.[Co+3] | active: 10.5 µM | – | inactive: -15% [at 16.1 µM] | inactive: -10.5% [at 16.1 µM] | – | – | – | inactive: -1.21% [at 16.1 µM] | – | – |
| C/C1=C2N=C(/C=C3N=C(/C(C)=C4\[N-][C@@](C)([C@@H]5N=C1[C@](C)(CCC(=O)NC[C@@H](C)OP(=O)([O-])O[C@H]1[C@@H](O)[C@@H](n6cnc7cc(C)c(C)cc76)O[C@@H]1CO)[C@H]5CC(N)=O)[C@@](C)(CC(N)=O)[C@@H]4CCC(N)=O)[C@@](C)(CC(N)=O)[C@@H]\3CCC(N)=O)C(C)(C)[C@@H]/2CCC(N)=O.[C-]#N.[Co+3] | inactive | inactive: -11.8% | inactive: -17.5% | inactive: -19% | – | – | inactive: -37.9% [at 46 µM] | inactive: -19.2% | inactive: -10.2% | – |
